The values that follow come from PubChem BioAssay AID2751 (The Scripps Research Institute Molecular Screening Center, 2010).

Amino acid sequences for entries named in this document (tags omitted).
UniProt Q4J6C6, whole entry, looked up: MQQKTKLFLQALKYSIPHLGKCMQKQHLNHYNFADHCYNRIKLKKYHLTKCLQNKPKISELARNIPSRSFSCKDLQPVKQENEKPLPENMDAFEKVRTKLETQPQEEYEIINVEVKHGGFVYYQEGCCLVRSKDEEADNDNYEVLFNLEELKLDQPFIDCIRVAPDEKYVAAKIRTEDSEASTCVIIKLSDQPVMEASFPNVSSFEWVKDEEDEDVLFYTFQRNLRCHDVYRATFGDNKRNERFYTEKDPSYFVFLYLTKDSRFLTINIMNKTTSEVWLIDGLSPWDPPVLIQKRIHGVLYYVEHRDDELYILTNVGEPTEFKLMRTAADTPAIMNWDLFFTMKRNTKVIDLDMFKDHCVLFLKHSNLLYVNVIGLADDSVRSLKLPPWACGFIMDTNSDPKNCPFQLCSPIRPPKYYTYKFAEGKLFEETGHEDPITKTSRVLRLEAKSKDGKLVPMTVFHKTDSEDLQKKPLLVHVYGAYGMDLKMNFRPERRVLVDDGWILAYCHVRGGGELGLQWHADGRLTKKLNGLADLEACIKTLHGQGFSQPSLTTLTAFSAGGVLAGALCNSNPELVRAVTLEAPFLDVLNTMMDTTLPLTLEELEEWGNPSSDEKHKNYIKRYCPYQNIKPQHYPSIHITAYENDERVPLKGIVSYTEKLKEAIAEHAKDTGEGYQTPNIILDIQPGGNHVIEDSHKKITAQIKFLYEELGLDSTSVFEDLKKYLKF

The list shows a part of the results, in another mix than the full data. Active and inactive are the calls of the source. Rule as the data show it: active = inhibition above about 43%; inactive = the rest.

What is called inhibition is the relative decrease from the control value, in per cent.

This assay addresses Prolyl endopeptidase-like (Homo sapiens) (UniProt Q4J6C6). In words: human PREPL activity-probe blockers – biochemical, fluorescence polarization, primary screen (AID 2751).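 Also: 0% = enzyme with DMSO and 100% = wells lacking enzyme.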 To be noted: recombinant PREPL, fluorescence polarization activity-based probe; at 5.96 µM; active compounds read high. A general note: Fluorescence polarisation rises when a labelled molecule tumbles more slowly, as on binding a larger partner.
As to `O=P(Nc1ccccn1)(c1ccc(Br)cc1)c1ccc(Br)cc1`, the inhibition was inactive: -6.09%.
For `CN(C)C1(CNC(=O)c2ccc(Cl)c(S(N)(=O)=O)c2)CCCCC1`, the inhibition is inactive: -2.27%.
For `C[C@H]1OP(=O)(Oc2ccccc2)[C@H](O)[C@H](O)[C@H]1N=[N+]=[N-]` (stereo partly specified) the value was inactive: -9.56%; for `O=P(Nc1nc2ccccc2s1)(c1ccccc1)c1ccccc1`, inactive: 10.6%; for `O=[N+]([O-])c1ccc(O)c(/C=N/Nc2ccc([N+](=O)[O-])cc2[N+](=O)[O-])c1`, inactive: 5.7%.
For `CC(=O)NC(SC(=S)N(C)C)C(Cl)(Cl)Cl` (stereo unspecified) the value was inactive: -5.53%.
For `O=[N+]([O-])c1ncn(CCn2cnc([N+](=O)[O-])n2)n1` the value was inactive: 0.18%.
Consider `O=[As](O)(c1ccccc1)c1ccc(O)cc1`, for which the inhibition is inactive: 8.47%.
As for `C(Cc1nn[nH]n1)Cc1nn[nH]n1`, the inhibition is inactive: 2.74%.
For `Nc1ccc([As](=O)(O)c2ccc([N+](=O)[O-])cc2)cc1` the value was inactive: -5.98%; for `O=C(OC1CN2CCC1CC2)c1cccc(Cl)c1` (stereo unspecified), inactive: 13.2%.
As for `CC(C)C(=O)NC(Sc1ccccc1)C(Cl)(Cl)Cl` (stereo unspecified), the inhibition was inactive: 5.67%.
For `O=P(Nc1nccs1)(c1ccccc1)c1ccccc1` the value was inactive: -0.13%.
Then `c1nnnn1CCn1cnnn1`, with inactive: -6.61%; and `CCOc1ccc(C2=NCC(CBr)S2)cc1` (stereo unspecified), with inactive: -12.3%; and `O=P1(Nc2nc3ccc(Cl)cc3s2)COc2ccccc2O1` (stereo unspecified), with inactive: -8.5%.
On to `CC(C)(C)C(=O)NC(Sc1ccccc1)C(Cl)(Cl)Cl` (stereo unspecified), for which the inhibition was inactive: 9.41%.
Regarding `CC(=O)c1ccc(N2CC2c2ccncc2)cc1` (stereo unspecified), the inhibition was inactive: -8.13%.
For `C[C@H]1OP(=O)(Oc2ccccc2)C[C@@H]2O[C@@H]21` (stereo partly specified) the value was inactive: 9.74%.
As for `C[C@@H]1C=CCP(=O)(Oc2ccccc2)O1` (stereo partly specified), the inhibition is inactive: -0.39%.
As for `Cc1ccccc1CN(C)C(=O)COC(=O)C(O)(c1ccccc1)c1ccccc1`, the inhibition is inactive: 12.6%.
Then `CC(=O)Nc1ccc(Oc2c([N+](=O)[O-])cc([N+](=O)[O-])cc2[N+](=O)[O-])cc1`, with inactive: 0.93%; and `CC(=O)Nc1ccc([As](=O)(O)O)c(O)c1`, with inactive: 7.29%.
For `CCNC(=S)/N=C(\N)N[N+](=O)[O-]` the value was inactive: 3.43%; for `O=C(NC1CCS(=O)(=O)C1)NP(=S)(Oc1ccccc1)Oc1ccccc1` (stereo unspecified), inactive: -2.5%.
With `Cc1ccc(NP(=O)(Oc2cccc(C)c2)Oc2cccc(C)c2)nc1`, the inhibition is inactive: 8.16%.
Then `CCOC(=O)NC(Sc1ccccc1)C(Cl)(Cl)Cl` (stereo unspecified), with inactive: 0.47%; and `c1ccc(-c2nn[nH]n2)c(-c2nn[nH]n2)c1`, with inactive: -12.8%; and `CC(=O)NC(SC(=S)N(CC(C)C)CC(C)C)C(Cl)(Cl)Cl` (stereo unspecified), with inactive: 12.2%.
For `Cc1ccc(OP(=O)(Nc2ccccn2)Oc2ccc(C)cc2)cc1` the value was inactive: 6.21%; for `COC(=O)c1cc2c(s1)N=C(c1ccccc1)N(C)P2(=O)N1CCOCC1` (stereo unspecified), inactive: 18.6%.
For `CCC(=O)N1C2C3N(C(=O)CC)C1C1N(C(=O)CC)C(C(N1C(=O)CC)N3C(=O)CC)N2C(=O)CC` the value was inactive: 5.17%.
As for `O=C(OC1CN2CCC1CC2)c1ccccc1` (stereo unspecified), the inhibition is inactive: -1.42%.
Consider `CN(C)C(=O)Oc1noc2ccccc12`, for which the inhibition was inactive: -0.38%.
As to `CC(NC(=O)COC(=O)C(O)(c1ccccc1)c1ccccc1)c1ccccc1` (stereo unspecified), the inhibition was inactive: 29%.
Take `Cc1ccccc1OP(=O)(Nc1ccccn1)Oc1ccccc1C`: the inhibition is inactive: -4.01%.
Turning to `CC(=O)Nc1ccc([As](=O)(O)O)cc1`, the inhibition is inactive: 8.78%.
For `O=C(O)c1ccccc1[As](=O)(O)O` the value was inactive: 0.88%.
For `O=P(Nc1nc2ccc(Cl)cc2s1)(c1ccccc1)c1ccccc1` the value was inactive: 10.2%.
With `Cc1ccc(NP(=O)(Oc2ccccc2F)Oc2ccccc2F)nc1`, the inhibition is inactive: -2.45%.
For `CN(C(=O)Cc1ccc(Cl)c(Cl)c1)[C@H]1CCCC[C@@H]1N1CCCC1` the value was inactive: 35.5%.
For `Cc1cc(SC(NC(=O)c2ccc(F)cc2)C(Cl)(Cl)Cl)ncn1` (stereo unspecified) the value was inactive: 6.44%; for `CCOP(=O)(Nc1ccccc1)OCC`, inactive: 6.01%; for `O=[N+]([O-])c1cc([N+](=O)[O-])c(CCN2CCOCC2)c([N+](=O)[O-])c1`, active: 61.4%.
For `CCN(N=Nc1nonc1N)c1nonc1N` the value was inactive: -4.5%; for `NC(=O)c1cc([N+](=O)[O-])cc([N+](=O)[O-])c1N`, inactive: 9.77%; for `Cc1ccc(N/C(=N/P(=O)(N2CCOCC2)N2CCOCC2)N2CCOCC2)cc1`, inactive: -2.41%.
Take `CN(C(=O)Cc1ccc(Cl)c(Cl)c1)[C@H]1CCCC[C@H]1N1CCCC1`: the inhibition was active: 61.8%.
Then `Cc1ccc(OP(=O)(Nc2nccs2)Oc2ccc(C)cc2)cc1`, with inactive: -4.72%; and `COc1ccccc1OP(=O)(Nc1ccc(C)cn1)Oc1ccccc1OC`, with inactive: -2.06%; and `CN1CCCC(OC(=O)C(c2ccccc2)c2ccccc2)C1` (stereo unspecified), with inactive: -5.71%.
Then `Clc1ccc(Cl)c(NC2=NCC(CBr)S2)c1` (stereo unspecified), with inactive: -0.13%; and `Nc1cc(N)c2nonc2c1[N+](=O)[O-]`, with inactive: -1.42%; and `CC(C)CC(=O)NC(Sc1ccc(Cl)cc1)C(Cl)(Cl)Cl` (stereo unspecified), with inactive: 8.12%.
Then `O=C(NC(Sc1ccncn1)C(Cl)(Cl)Cl)c1ccccc1` (stereo unspecified), with inactive: 9.42%; and `Cc1c2non([O-])c-2c(C)[n+](=O)[n+]1[O-]`, with inactive: 4.61%; and `Oc1ccccc1CNc1ccccn1`, with inactive: -11.4%.
Regarding `COc1ccc(C2=NCC(CBr)S2)cc1` (stereo unspecified), the inhibition is inactive: -6.76%.
Then `O=[N+]([O-])c1cccc2n[nH]nc12`, with inactive: -7%; and `CC(=O)N1C2C3N(C(C)=O)C1C1N(C(C)=O)C(C(N1C(C)=O)N3C(C)=O)N2C(C)=O`, with inactive: -0.78%.
Consider `CCc1nc2c(n1)c1c(non1O)c1c2no[n+]1[O-]`, for which the inhibition was inactive: 11.4%.
For the compound `O=[N+]([O-])c1cc([N+](=O)[O-])c(CCNc2ccccc2)c([N+](=O)[O-])c1`, the inhibition is inactive: 26.2%.
As to `Cc1ccc(NP(=O)(Oc2ccccc2)Oc2ccccc2)nc1`, the inhibition was inactive: 0.35%.
Then `C[N+]1=C2C=CC=CC=C2SC12C([N+](=O)[O-])=CC([N+](=O)[O-])=C[C-]2[N+](=O)[O-]` (stereo unspecified), with inactive: 20.4%; and `Nc1ccc([As](=O)(O)c2ccc(N)cc2)cc1`, with inactive: 9.12%.
Then `CCN(/C(=N/P(=O)(N1CCOCC1)N1CCOCC1)N1CCOCC1)c1ccc(OC)cc1`, with inactive: 2.74%; and `CN(C)C(=O)OCCc1n(C)cc[n+]1C`, with inactive: -3.58%; and `CC(C)=N/N=C(\N)N[N+](=O)[O-]`, with inactive: -12.1%.
Then `CC1CCN(C(=O)Oc2c(Cl)cc(Cl)c3cccnc23)CC1`, with inactive: 2.44%; and `O=C(Nc1cc([As](=O)(O)O)ccc1O)c1ccccc1`, with inactive: 12%.
Turning to `CC(C)(C)C(=O)NC(Sc1ccncn1)C(Cl)(Cl)Cl` (stereo unspecified), the inhibition is inactive: 14.4%.
For `O=[N+]([O-])c1ncn(CCn2ncnc2[N+](=O)[O-])n1` the value was inactive: -3.62%.
Then `O=[N+]([O-])c1cccc(NC2=NCC(CBr)S2)c1` (stereo unspecified), with inactive: 8.87%; and `CCOC(=O)Nc1ccc([As](=O)(O)O)c(O)c1`, with inactive: 4.96%.
Then `Cc1cc(SC(NC(=O)c2ccccc2)C(Cl)(Cl)Cl)nc(C(C)C)n1` (stereo unspecified), with inactive: 2.73%.
In the case of `CCOC(=O)Nc1cccc([As](=O)(O)O)c1`, the inhibition is inactive: 5.63%.
For `O=P(Nc1ccccn1)(c1cccc2ccccc12)c1cccc2ccccc12`, the inhibition is inactive: -17.9%.
For the compound `Cc1cc(SC(NC=O)C(Cl)(Cl)Cl)ncn1` (stereo unspecified), the inhibition was inactive: 8.9%.
For the compound `COP1(=S)c2c(C)nn(CCC#N)c2N=C(c2ccc(F)cc2)N1C` (stereo unspecified), the inhibition is inactive: 37.7%.
For `O=C(Nc1ccncc1[N+](=O)[O-])c1ccc([N+](=O)[O-])cc1[N+](=O)[O-]` the value was inactive: 13.8%; for `O=C(COc1ccccc1)OC1CN2CCC1CC2` (stereo unspecified), inactive: 18%; for `CCOC(=O)c1ccc(NC(=O)C(C)(CCl)SC)cc1` (stereo unspecified), inactive: 6.31%.
For `O=C(OC1CN2CCC1CC2)c1cccc([N+](=O)[O-])c1` (stereo unspecified) the value was inactive: 2.21%; for `CCC(C)N(CC(C)C)C(=S)SC(NC(C)=O)C(Cl)(Cl)Cl` (stereo unspecified), inactive: 7.07%.
Consider `Cc1cc(=O)[nH]c(N[N+](=O)[O-])n1`, for which the inhibition was inactive: 8.53%.
For `O=C(OC1CN2CCC1CC2)C12CC3CC(CC(C3)C1)C2` (stereo unspecified) the value was inactive: 16.2%; for `Cc1c2c(nc3ccccc13)SC(C(Cl)Cl)C2` (stereo unspecified), inactive: 2.32%.
With `COc1ccc2nc(NP(=O)(c3ccccc3)c3ccccc3)sc2c1`, the inhibition was inactive: 5.28%.
`COc1ccc(N/C(=N/P(=O)(N2CCOCC2)N2CCOCC2)N2CCOCC2)cc1`: the inhibition was inactive: -3.34%.
For `COc1cc(C(=O)NCC2(N3CCOCC3)CCCCC2)ccc1OCC(C)C`, the inhibition is inactive: 5.32%.
`C[As](=O)(O)c1cccc(C(=O)O)c1`: the inhibition was inactive: 14.8%.
For `O=[As](O)(c1ccc(O)cc1)c1ccccc1O` the value was inactive: 0.16%; for `Cc1ccc2nc3c(c(C)c2c1)CC(C(Cl)Cl)S3` (stereo unspecified), inactive: -2.72%.
For `Cc1ccc(OP(=O)(Nc2ccc([N+](=O)[O-])cn2)Oc2ccc(C)cc2)cc1`, the inhibition is inactive: -5.58%.
On to `CC(C)c1ccc(OP(=O)(Nc2ccccn2)Oc2ccccc2F)cc1` (stereo unspecified), for which the inhibition is inactive: -4.8%.
For the compound `ClCCSc1nnc(-c2cccnc2)o1`, the inhibition is inactive: -4.03%.
Then `O=[N+]([O-])c1cc([N+](=O)[O-])c(-c2ccn[nH]2)s1`, with inactive: 6.7%; and `CC(C)NC(=O)NP(=O)(Oc1ccccc1)Oc1ccccc1`, with inactive: 14.1%.
Then `CCN(CC)C(=S)SC(NC=O)C(Cl)(Cl)Cl` (stereo unspecified), with inactive: 19.3%; and `CS(=O)(=O)c1cc([N+](=O)[O-])c2no[n+]([O-])c2c1`, with inactive: 10.9%.
Then `O=P(Nc1nccs1)(Oc1ccccc1)Oc1ccccc1`, with inactive: 9.8%.
